Data as given in patent US9617577B2, “Bacillus pumilus bilirubin oxidase and applications thereof” (CENTRE NATIONAL DE LA RECHERCHE SCIENTIFIQUE, priority 2010, dated 2017).

The chains behind the UniProt entries cited, without tags or fusion partners. Where a name states a change or a piece, a line headed by the entry shows the natural chain unless it says otherwise.
UniProt A8FAG9: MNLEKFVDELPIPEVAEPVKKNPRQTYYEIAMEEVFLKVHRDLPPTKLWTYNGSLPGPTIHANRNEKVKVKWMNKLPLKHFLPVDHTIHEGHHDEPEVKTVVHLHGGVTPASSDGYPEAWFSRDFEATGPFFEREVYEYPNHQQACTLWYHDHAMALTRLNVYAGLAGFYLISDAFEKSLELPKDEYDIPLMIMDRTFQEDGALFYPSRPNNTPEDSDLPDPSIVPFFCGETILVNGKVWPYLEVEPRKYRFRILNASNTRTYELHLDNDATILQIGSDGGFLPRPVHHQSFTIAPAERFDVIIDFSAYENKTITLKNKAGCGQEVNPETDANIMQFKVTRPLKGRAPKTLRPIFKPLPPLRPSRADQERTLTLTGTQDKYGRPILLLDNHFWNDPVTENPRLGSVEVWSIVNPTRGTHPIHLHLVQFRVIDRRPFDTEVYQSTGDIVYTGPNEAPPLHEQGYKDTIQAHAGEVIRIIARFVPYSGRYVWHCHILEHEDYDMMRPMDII

Columns and labels:
[1] = target: T1, Bacillus pumilus bilirubin oxidase (BOD), wild type, strain SAFR-032, SEQ ID No. 2 (C-terminal 6xHis tag) (Bacillus pumilus, UniProt A8FAG9); test: Steady-state kinetics of ABTS oxidation by B. pumilus BOD; format: biochemical; details: 37° C., 0.1 M citrate/phosphate buffer, pH 3
T1 sequence (A8FAG9 with tags, fused parts or gaps): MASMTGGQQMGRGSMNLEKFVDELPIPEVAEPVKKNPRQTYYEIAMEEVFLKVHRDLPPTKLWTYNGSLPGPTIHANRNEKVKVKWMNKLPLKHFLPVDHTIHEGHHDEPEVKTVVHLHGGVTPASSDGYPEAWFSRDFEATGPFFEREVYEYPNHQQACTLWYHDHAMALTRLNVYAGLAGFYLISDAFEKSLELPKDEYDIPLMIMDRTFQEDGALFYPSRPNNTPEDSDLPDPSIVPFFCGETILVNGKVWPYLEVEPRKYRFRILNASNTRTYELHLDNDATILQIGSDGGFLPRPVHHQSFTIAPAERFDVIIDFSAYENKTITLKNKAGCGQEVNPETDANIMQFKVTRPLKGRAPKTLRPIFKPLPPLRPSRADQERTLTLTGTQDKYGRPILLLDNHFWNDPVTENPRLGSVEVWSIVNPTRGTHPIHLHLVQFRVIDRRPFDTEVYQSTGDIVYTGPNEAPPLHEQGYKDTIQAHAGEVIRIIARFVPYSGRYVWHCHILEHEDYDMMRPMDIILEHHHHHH

[2] = test system: Bacillus subtilis CotA (BOD); details: same optimal activity conditions; Martins et al., 2008; cited from earlier work

CCn1c(=NN=c2sc3cc(S(=O)(=O)O)ccc3n2CC)sc2cc(S(=O)(=O)O)ccc21 [ABTS, 2,2′-azinobis(3-ethylbenzothiazoline-6-sulphonic acid)]
kcat (for ABTS) [1]: 391.3 s⁻¹
kcat (for ABTS) [2]: 322 s⁻¹
